US9801880B2, “Use of kinase inhibitors” (BerGenBio AS, priority 2013, dated 2017)

Tests used:
MerTK [1] = target: T1, MerTK (Homo sapiens, UniProt Q12866); assay: KinomeScan competition binding assay; set-up: purchased DiscoveRx Corporation (KinomeScan service)
T1 sequence (Q12866 21-999): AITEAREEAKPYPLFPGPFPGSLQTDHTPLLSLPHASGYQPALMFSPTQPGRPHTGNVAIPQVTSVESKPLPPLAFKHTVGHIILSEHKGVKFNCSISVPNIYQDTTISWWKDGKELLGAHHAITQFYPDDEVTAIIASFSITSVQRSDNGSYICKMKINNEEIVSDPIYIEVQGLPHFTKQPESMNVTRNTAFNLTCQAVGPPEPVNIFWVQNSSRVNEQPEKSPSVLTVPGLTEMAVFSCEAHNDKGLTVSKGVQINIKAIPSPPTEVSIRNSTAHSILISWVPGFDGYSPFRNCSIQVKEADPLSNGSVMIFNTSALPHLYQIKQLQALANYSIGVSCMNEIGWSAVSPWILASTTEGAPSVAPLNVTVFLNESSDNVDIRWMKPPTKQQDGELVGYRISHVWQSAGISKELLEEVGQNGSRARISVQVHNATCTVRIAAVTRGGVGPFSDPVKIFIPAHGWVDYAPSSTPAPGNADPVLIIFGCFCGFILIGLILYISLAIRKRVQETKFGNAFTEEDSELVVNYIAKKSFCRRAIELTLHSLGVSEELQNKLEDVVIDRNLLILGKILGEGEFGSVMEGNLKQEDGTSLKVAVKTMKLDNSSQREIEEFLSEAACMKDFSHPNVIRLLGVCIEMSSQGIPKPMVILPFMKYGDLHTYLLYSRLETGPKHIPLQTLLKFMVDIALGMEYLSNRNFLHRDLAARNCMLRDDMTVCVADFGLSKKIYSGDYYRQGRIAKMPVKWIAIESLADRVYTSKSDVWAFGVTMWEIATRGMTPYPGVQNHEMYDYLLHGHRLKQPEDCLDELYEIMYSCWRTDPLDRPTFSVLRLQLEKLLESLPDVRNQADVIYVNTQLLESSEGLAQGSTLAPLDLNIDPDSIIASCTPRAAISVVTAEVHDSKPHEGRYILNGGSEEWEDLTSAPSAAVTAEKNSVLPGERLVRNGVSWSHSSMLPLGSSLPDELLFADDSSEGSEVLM
From the text: (§1) Detailed assay methodologies can be found in the relevant references cited herein, or in the KinaseProfiler Service Assay Protocols (v54, 2011) available from EMD Millipore (www.emdmillipore.com), or from the KinomeScan website (www.kinomescan.com), as appropriate. (For a more detailed description of KINOMEscan's assay technology, see: Fabian et al. A small molecule-kinase interaction map for clinical kinase inhibitors. Nat. Biotechnol. 23, 329-336 (2005)). A summary is provided below.
KinomeScan™ assays (DiscoveRx Corporation, San Diego, Calif., USA) are active-site-directed competition binding assays. […] The amount of kinase captured in test versus control samples is determined by using a qPCR method that detects the associated DNA label on each kinase molecule. Dissociation constants (Kd) for test compound-kinase interactions are calculated by measuring the amount of kinase captured on the solid support as a function of the test compound concentration.

MerTK [2] = target: T1, MerTK; assay: KinaseProfiler kinase activity assay; type: biochemical; set-up: purchased EMD Millipore Corp. (KinaseProfiler service); conditions: ATP at Km
From the text: as §1
KinaseProfiler™ assays (EMD Millipore Corp. Billerica, Mass., USA) are […] with purified or partially-purified human kinases. Most of the KinaseProfiler™ assays are conducted in 20 mM MOPS, 1 mM EDTA, 0.01% Brij-35, 5% Glycerol, 0.1% b-mercaptoethanol, 1 mg/mL BSA. The assay involves the transfer of ^32P from γ-^32P-ATP to the target peptide, followed by washing and trapping of the labeled peptide on a filter. The concentration of γ-^32P-ATP used was at the established Km for ATP.

SMILES: Nc1nc(Nc2ccc3c(c2)CC[C@@H](N2CCCC2)CC3)nn1-c1cc2c(nn1)-c1ccccc1CCC2 [Compound A, 1-(6,7-dihydro-5H-benzo[6,7]cyclohepta[1,2-c]pyridazine-3-yl)-N^3-(7-(S)-(pyrrolidin-1-yl)-6,7,8,9-tetrahydro-5H-benzo[7]annulene-2-yl)-1H-1,2,4-triazole-3,5-diamine]
- Kd (MerTK [1]): 100 nM
- IC50 (MerTK [2]): < 46 nM and 12.5 nM

Values joined by “and” are separate entries in the source; they are usually repeats but may differ in a detail not shown here. Equal entries are not always repeated.
